Bioassay records (PubChem BioAssay)
AF4-AF9 inh = inhibitors of AF4 peptide binding to AF9, primary screen, biochemical, AlphaScreen, biotin-AF4 peptide, FLAG-AF9, single point; inhibition, % at 10 µM; hit rate 0.47% among 350,000; AID 651704, 2012;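 active means every replicate reaching a set inhibition limit, whatever the replicate mean, cut at about 25% in these data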
Yeast UUG start = yeast start codon fidelity modulation | S. cerevisiae UUG-firefly luciferase reporter, luminescence/redox ratio | activity score, % at 18.7 µM | hit rate 0.13% among 350,000 | AID 602363;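 active means replicate mean at a twofold rise or more, about +100% in these data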;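 further: firefly luciferase made from a UUG start codon reports start codon fidelity; reporter light over untreated wells divided by growth signal over untreated wells; some hits fall short of that in this replicate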
E-sel inducer = E-selectin induction in HUVECs, primary screen, imaging, HUVEC, immunofluorescence imaging, single point. AID 686992, 2013. hit rate 0.37% among 260,000. normalized: neutral wells 0, TNF-alpha wells 100. activation, % at 7.58 µM. P16581;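 active means mean E-selectin-positive cell signal at least 10% of the positive control, reached in at least 60% of replicates, without over 20% cell loss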
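assay system = HUVEC, human umbilical vein endothelial cells | input = 3,000 HUVEC seeded per well | medium = EGM-2 growth medium on 0.1% gelatin-coated wells | dosing = one compound dose added by pin transfer | signal = immunofluorescence imaging | read-out basis = % PE-positive cells | control set = TNF-alpha, DMSO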
SIRT5 inh = SIRT5 desuccinylase inhibitors, primary screen, biochemical, fluorescence imaging, single point, set 5 | Purified SirT5, succinyl-peptide AMC, trypsin-coupled fluorescence | inhibition, % at 15 µM | hit rate 1.1% among 330,000 | AID 652115, 2013; in the data active means inhibition above about 15%
RAD52 inh = RAD52 DNA annealing inhibitors, primary screen, biochemical, FRET, single point, set 2; recombinant RAD52 DNA annealing, FRET fluorescence; DNA repair protein RAD52 homolog (Homo sapiens), P43351; hit rate 0.46% among 360,000; inhibition, % at 18.7 µM;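 active means every replicate showing at least 50% inhibition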
RAD54 inh = inhibitors of human RAD54 branch migration, primary screen, biochemical, fluorescence, single point; hit rate 0.14% among 360,000; inhibition, % at 10.4 µM; RAD54 Holliday junction branch migration, FAM/BHQ fluorescence;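 active means mean normalized replicate activity at least 40 and at least half of replicates scoring 40 or more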;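 further: inhibitors cause a drop in the FAM fluorescence signal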
A number is an active result; i = inactive; nt = no result given. In the library only some 1.8% were active in any assay of this set; here they are far more common.

SMILES | AF4-AF9 inh | Yeast UUG start | E-sel inducer | SIRT5 inh | RAD52 inh | RAD54 inh
C[C@H]1CN([C@@H](C)CO)C(=O)c2cc(C#CC(C)(C)O)cnc2O[C@@H]1CN(C)Cc1cncnc1 | i | i | i | i | i | i
C[C@H](NC(=O)[C@H]1[C@H](CO)[C@H]2Cn3c(cccc3=O)[C@@H]1N2C(=O)C1CC1)c1ccccc1 | i | i | i | i | i | i
C[C@@H]1CN([C@H](C)CO)C(=O)c2cc(NC(=O)c3ccccc3)ccc2O[C@@H](C)CCCCO[C@@H]1CN(C)C(=O)CCC(F)(F)F | i | i | i | i | i | i
CN(c1ccccc1)c1ccc(/C=C(/CCC(=O)O)c2nc3ccccc3s2)cc1[N+](=O)[O-] | i | nt | i | 18 | i | nt
c1ccc2c(c1)CC/C2=N/Nc1nc2ccccc2[nH]1 | i | i | i | i | i | i
CC(C)(C)C1CCC(=NNc2nc3ccccc3[nH]2)CC1 (stereo not given) | i | nt | i | 19 | i | nt
c1ccc(CN2CCC(=NNc3nc4ccccc4[nH]3)CC2)cc1 | 34 | i | nt | i | i | i
CCC(=O)Nc1ccc2c(c1)C(=O)N(C)[C@H]1CC[C@@H](CC(=O)NCCCN(C)C)O[C@H]1CO2 | i | i | i | i | i | i
C[C@@H]1CCCCO[C@@H](CN(C)C(=O)Nc2ccccc2)[C@H](C)CN([C@@H](C)CO)C(=O)c2cc(NC(=O)c3ccncc3)ccc2O1 | i | i | nt | i | i | i
CO[C@H]1CN(C)C(=O)c2ccc(NS(C)(=O)=O)cc2OC[C@H](C)N(CCC(F)(F)F)C[C@H]1C | i | i | i | i | i | i
CCCNC(=O)N1CC2(CN(Cc3ccccn3)C2)c2c(n(C)c3cc(OC)ccc23)[C@H]1CO | i | nt | i | nt | nt | nt
Cc1ccc(C)c(NC(=S)NC(C)C(c2ccccc2)N2CCN(C)CC2)c1 (stereo not given) | i | nt | i | i | i | nt
CCN1CCN(C(c2cccs2)C(C)NC(=S)Nc2cc(C)ccc2C)CC1 (stereo not given) | i | nt | i | 16 | i | nt
COc1ccc2c3c([nH]c2c1)[C@@H](CO)N(S(C)(=O)=O)CC31CN(C(=O)c2cccnc2)C1 | i | nt | i | i | i | nt
Cc1cc(C)n(CCNC(=O)CCc2nnc(CCc3ccccc3)o2)n1 | i | i | i | 15 | i | i
CCCNC(=O)N1CC2(CCN(C(=O)c3ccncc3)CC2)c2c([nH]c3cc(OC)ccc23)[C@H]1CO | i | nt | i | i | i | nt
Cc1noc(C)c1NC(=O)N[C@@H]1CC[C@@H](CC(=O)NCc2ccc(Cl)c(Cl)c2)O[C@@H]1CO | i | i | i | i | i | i
O=C(NCC[C@@H]1CC[C@H](NC(=O)c2ccccc2F)[C@@H](CO)O1)c1ccc2c(c1)OCO2 | i | i | i | 16 | i | i
O=C(CN1CCOCC1)N[C@H]1CC[C@@H](CCNC(=O)Nc2cc(F)ccc2F)O[C@@H]1CO | i | i | i | i | i | i
O=C(CN1CCOCC1)N[C@@H]1CC[C@H](CCNC(=O)Nc2cc(F)ccc2F)O[C@@H]1CO | i | i | i | 16 | i | i
COc1cccc(S(=O)(=O)N[C@H]2CC[C@H](CCNC(=O)Cc3ccncc3)O[C@@H]2CO)c1 | i | i | i | 16 | i | i
O=C(NCC[C@@H]1CC[C@H](NC(=O)c2ccccc2F)[C@H](CO)O1)c1ccc2c(c1)OCO2 | i | i | i | i | i | i
COc1ccc(S(=O)(=O)N[C@H]2C=C[C@@H](CC(=O)NCCc3ccncc3)O[C@H]2CO)cc1 | i | nt | i | 29 | i | i
COc1ccc(S(=O)(=O)N[C@@H]2C=C[C@H](CC(=O)NCCc3ccncc3)O[C@H]2CO)cc1 | nt | nt | i | nt | nt | nt
O=C(CN1CCOCC1)NCC[C@@H]1CC[C@@H](NS(=O)(=O)c2ccc(Cl)cc2)[C@H](CO)O1 | i | i | i | i | i | i
SMILES | AF4-AF9 inh | Yeast UUG start | E-sel inducer | SIRT5 inh | RAD52 inh | RAD54 inh
O=C(NCC[C@H]1CC[C@H](NS(=O)(=O)c2ccc(Cl)cc2)[C@@H](CO)O1)Nc1ccc(F)cc1 | 27 | nt | i | i | i | nt
O=C(NCC[C@H]1CC[C@@H](NS(=O)(=O)c2ccc(F)cc2)[C@@H](CO)O1)Nc1ccc(Cl)cc1 | i | i | i | i | i | i
O=C(NCC[C@@H]1CC[C@H](NC(=O)Nc2cc(F)ccc2F)[C@H](CO)O1)Nc1ccc(Cl)cc1 | i | i | i | i | i | i
O=C(NCC[C@H]1CC[C@@H](NC(=O)Nc2cc(F)ccc2F)[C@H](CO)O1)Nc1ccc(F)cc1 | i | i | i | 33 | i | i
O=C(NCC[C@@H]1CC[C@@H](NS(=O)(=O)c2cccc(F)c2)[C@@H](CO)O1)C1CCOCC1 | i | i | i | 38 | i | i
O=C(CN1CCOCC1)NCC[C@H]1CC[C@@H](NS(=O)(=O)c2ccc(Cl)cc2)[C@@H](CO)O1 | i | i | i | 32 | i | i
CCC(=O)N1C[C@H]2[C@@H](c3ccccc31)[C@@H](CO)N2C(=O)Nc1ccccc1F | i | i | i | i | i | i
CCC(=O)N1CC2(C1)[C@H](c1ccc(-c3cccc(OC)c3)cc1)[C@@H](CO)N2C(C)=O | i | nt | i | i | i | nt
CCC(=O)N1C[C@@H](C)[C@H](OC)CN(C)C(=O)c2cc(NC(=O)COC)ccc2OC[C@H]1C | i | i | i | nt | i | i
CC(C)NC(=O)Nc1ccc2c(c1)C(=O)N([C@H](C)CO)C[C@@H](C)[C@H](CN(C)C)O2 | i | nt | i | i | i | i
C[C@H](CO)N1C[C@H](C)[C@@H](CN(C)C(=O)CCCN(C)C)OCCCC[C@H](C)Oc2ccc(NC(=O)CCCN(C)C)cc2C1=O | i | i | nt | i | i | i
CNC[C@H]1Oc2ccc(NC(=O)NC(C)C)cc2CC(=O)N([C@H](C)CO)C[C@@H]1C | i | i | nt | i | i | i
COc1ccc(CNC(=O)C[C@H]2CC[C@H]3[C@H](COc4ccc(NC(C)=O)cc4C(=O)N3C)O2)cc1 | i | i | i | nt | i | i
CCOC(=O)CC1C(=O)NCCN1C(=O)NC1CCCCC1 (stereo not given) | nt | i | nt | nt | nt | i
CCOC(=O)CC1C(=O)NCCN1C1CCCC1 (stereo not given) | i | nt | i | 20 | i | nt
CC(=O)N1[C@@H]2Cn3c(ccc(-c4cccnc4)c3=O)[C@H]1[C@@H](C(=O)N1CCc3ccccc3C1)[C@@H]2CO | i | nt | i | i | i | i
CC1CN(S(=O)(=O)c2ccc(F)cc2)C(C)N1C(=O)N1CCOCC1 (stereo not given) | i | i | 26 | i | i | i
